Protein sequences, listed by entry. Tags and fused reporters are not part of them.
UniProt P35372, whole entry: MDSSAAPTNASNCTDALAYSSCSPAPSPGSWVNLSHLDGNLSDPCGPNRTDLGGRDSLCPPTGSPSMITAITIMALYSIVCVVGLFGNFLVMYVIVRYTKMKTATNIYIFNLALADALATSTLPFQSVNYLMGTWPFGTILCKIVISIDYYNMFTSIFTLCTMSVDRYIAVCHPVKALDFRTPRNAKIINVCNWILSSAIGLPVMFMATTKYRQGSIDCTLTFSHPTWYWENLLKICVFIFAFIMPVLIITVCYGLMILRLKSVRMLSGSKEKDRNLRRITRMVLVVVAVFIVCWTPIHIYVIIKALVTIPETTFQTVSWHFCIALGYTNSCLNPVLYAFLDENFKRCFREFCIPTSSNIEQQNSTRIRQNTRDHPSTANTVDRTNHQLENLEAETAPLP

According to ChEMBL document CHEMBL1136971, “Nascent structure-activity relationship study of a diastereomeric series of kappa opioid receptor antagonists derived from CJ-15,208” (Bioorg Med Chem Lett, 2009):

Tests used:
Homo sapiens = organism: Homo sapiens; experiment: Ratio of Ki for human cloned mu opioid receptor to Ki for human cloned kappa opioid receptor
Mu-type opioid receptor = Mu-type opioid receptor (Homo sapiens, UniProt P35372); experiment: Displacement of [3H]diprenorphine from human cloned mu receptor by cell based assay

O=C1N[C@H](Cc2c[nH]c3ccccc23)C(=O)N[C@@H](Cc2ccc(O)cc2)C(=O)N2CCC[C@@H]2C(=O)N[C@H]1Cc1ccccc1
Ratio Ki (Homo sapiens): 3
Ki (Mu-type opioid receptor): 670 nM
